In patent publication US20180217151A1 (MILTENYI BIOTEC, published 2018):

Molecular target: T1, recombinant CD8 antigen ( (the Fab labels human PBMCs))
T1 construct: extracellular domain; also called CD8, recombinant extracellular domain
Assay: SPR (Biacore), recombinant antigen (extracellular domain) immobilized by amine coupling, Fab as analyte, 1:1 binding mass transfer model
Method: FIGS. 7A and 7B show surface plasmon resonance sensorgrams of anti-CD25 rFabs using immobilized recombinant CD25 antigen. At t 110 sec, different concentrations of Fab were injected for 180 sec. At t 290 sec, the dissociation phase started. […] FIG. 7B: RFT5-LAV rFab as an example for an antigen binding molecule that enables reversible labeling.
The Fab variants of example 1 and 4 were analyzed by surface plasmon resonance spectroscopy (Biacore™). Therefore, the specific recombinant antigen (extracellular domain, expressed in mammalian cells) for a Fab was immobilized on a CMS chip by standard amine coupling. The Fab variants were used as analytes in HBS-EP buffer (0.01 M HEPES pH 7.4, 0.15 M NaCl, 3 mM EDTA, 0.005% v/v Surfactant P20) in a concentration of up to 2 μM Fab. Evaluation was conducted with the Biacore™ X-100 Evaluation Software using an 1:1 binding mass transfer model. […] FIG. 7 exemplarily depicts Biacore™ sensorgrams of the anti-CD25 Fabs RFT5 rFab (FIG. 7A) and RFT5-LAV rFab (FIG. 7B) against immobilized recombinant CD25 antigen. In addition, published values of the anti-CD4 Fab variants wild-type, 13B8.2-Y92A, and 13B8.2-F100A are shown (taken from U.S. Pat. No. 7,482,000).

Kd: 29 nM | koff: 0.004 s⁻¹ | kon: 140000 M⁻¹ s⁻¹
B1: OKT8-LAV rFab (Fab, V domains shown)
VH: EVQLQQSGAELVKPGASVKLSCTASGFNIKDTYIHFVRQRPEQGLEWIGRIDPANDNTIYASKFQGKATITADTSSNTAYMHLSSLTSGDTAVYYCGRGYGYYVFDHWGQGTTVTVSS
VL: DVQINQSPSFLAASPGETITINCRTSRSISQYLAWYQEKPGKTNKLLIYSGSTLQSGIPSRFSGSGSGTDFTLTISGLEPEDFAMYYCQQANENPLTFGAGTKLELRR
modifications: biotin (thiol-reactive reagent, e.g. maleimide-PEO2-biotin) on cysteine(s) of the reduced disulfide bridge; position not stated
